Results on five compounds are retold here after ChEMBL document CHEMBL1129511 (J Med Chem, 1996).

The test system of this assay is LoVo. Put plainly: Inhibitory concentration was evaluated against colorectal tumar cell line LoVo. It is filed as functional, cell-based, Homo sapiens. A digest of the protocol:
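Cells were exposed to compound in microtitre plates for 1 h, washed, then grown a further 3 days at 37 °C. They were fixed with TCA, and adherent cellular protein was measured by SRB staining. IC50 is the concentration giving 50% growth inhibition.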

SMILES strings stand for the structures.

For the compound `Nc1ccc(N(CCCl)CCCl)cc1`, it took 1.8 µM to reach half-maximal inhibition (IC50).
With `O=C(O)Cc1ccc(N(CCCl)CCCl)cc1`, the IC50 was 19 µM.
`Sc1ccc(N(CCCl)CCCl)cc1` returned an IC50 of 100 µM.
`Oc1ccc(N(CCCl)CCCl)cc1` gave a half-inhibitory concentration (IC50) of 1 µM.
Take `O=C(O)c1ccc(N(CCCl)CCCl)cc1`: the IC50 is more than 100 µM.

Broadly, the IC50 is the concentration that gives 50% inhibition.
